Values quoted from earlier work, collected in paper PMC5427923, “A novel CCR2 antagonist inhibits atherogenesis in apoE deficient mice by achieving high receptor occupancy” (Scientific Reports, 2017).

System: hCCR2b
Settings: ref Vilums et al. [25], tested as the radiolabelled form; cited from earlier work

CCO[C@H]1CN(C2CCC(O)(c3ccc4c(c3)OCO4)CC2)C[C@@H]1NC(=O)CNC(=O)c1cccc(C(F)(F)F)c1 (mixture of isomers) [INCB3344]
KRI: 1.0 (1.0) | RT: 76 min
